We go through 76 compounds from PubChem BioAssay AID2052 (NMMLSC, 2009).

This is a selection; strong and weak results do not stand in their true shares. The source made the active and inactive calls.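 How the source made its calls: active means response, share of CD8 T cells binding vesicles, and their 90th percentile fluorescence all below set limits (cut at about 80% in these data, passing the limit was not always enough); inactive means the rest, inconclusive results apart.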

This assay can be described thus: modulators of CD8 T cell-vesicle binding, primary screen, mouse 2C CD8+ T cells, flow cytometry (AID 2052).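 Further: values below 100% mean blocked vesicle binding to the CD8+ T cells.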 To be noted: 2C CD8+ T cell-vesicle binding, at 7 µM, stronger effect = lower value. Put shortly: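 incubation = binding step 1.5 h, 37 °C, antibody labelling 20 min, ice | test system = 2C mouse CD8+ T cells | read-out basis = percent CD8+ FL2 mean versus row control | controls = Peptide-free naked vesicles (low) and QL9 vesicles with 0.7% DMSO vehicle (high) | detection = flow cytometry of vesicle-bound cells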
(A flow cytometer gives signals particle by particle.)
Regarding `CN(C(=O)Cc1ccccc1)[C@@H]1CC[C@]2(CCCO2)C[C@H]1N1CCCC1`, the response (vesicle binding) was inactive: 650%.

In the case of `N#CCCN(C(=O)COC(=O)C(O)(c1ccccc1)c1ccccc1)c1ccc(F)cc1`, the response (vesicle binding) is inactive: 324%.

As for `NC(=O)Nc1ccc([As](=O)(O)O)cc1`, the response (vesicle binding) was inactive: 460%.

With `O=C(O)COc1ccc([As](=O)(O)O)cc1[N+](=O)[O-]`, the response (vesicle binding) was inactive: 370%.

With `Nc1ccccc1[As](=O)(O)c1ccccc1`, the response (vesicle binding) was inactive: 641%.

`CS(=O)(=O)c1cc([N+](=O)[O-])c2no[n+]([O-])c2c1`: the response (vesicle binding) is inactive: 198%.

On to `O=P(Nc1nccs1)(Oc1ccccc1)Oc1ccccc1`, for which the response (vesicle binding) is inactive: 374%.

Take `O=C(O)c1cccc(Nc2c([N+](=O)[O-])cc([N+](=O)[O-])cc2[N+](=O)[O-])c1`: the response (vesicle binding) is inactive: 220%.

On to `CCOP1(=S)c2c(C)nn(CCC#N)c2N=C(c2ccccc2F)N1C` (stereo unspecified), for which the response (vesicle binding) is inactive: 804%.

Regarding `CCOP(=O)(Nc1cccc2ccccc12)OCC`, the response (vesicle binding) was inactive: 292%.

Turning to `Cc1ccc(C)c(NP(C)(=O)Oc2ccccc2)c1` (stereo unspecified), the response (vesicle binding) is inactive: 218%.

On to `CCCOP(=S)(Nc1nc(N)cc(=O)[nH]1)OCCC`, for which the response (vesicle binding) is inactive: 359%.

In the case of `Cc1ccc(NCCc2c([N+](=O)[O-])cc([N+](=O)[O-])cc2[N+](=O)[O-])cc1`, the response (vesicle binding) was inactive: 646%.

Consider `Nc1cccc2c([As](=O)(O)O)cccc12`, for which the response (vesicle binding) is inactive: 85.9%.

In the case of `Cc1cc(C)cc(OP(C)(=O)Nc2ccccn2)c1` (stereo unspecified), the response (vesicle binding) was inactive: 466%.

In the case of `CP(=O)(Nc1cccc(Br)c1)Oc1ccccc1` (stereo unspecified), the response (vesicle binding) is inactive: 299%.

`CCOC(=O)c1ccc(NP(C)(=O)Oc2cc(C)cc(C)c2)cc1` (stereo unspecified): the response (vesicle binding) was inactive: 341%.

For the compound `Cc1cc(C)cc(OP(C)(=O)Nc2ccc(C)cc2C)c1` (stereo unspecified), the response (vesicle binding) is inactive: 469%.

On to `Cc1cccc(OCC(=O)OC2CN3CCC2CC3)c1` (stereo unspecified), for which the response (vesicle binding) is inactive: 285%.

Take `O=[As](O)(c1cccc(O)c1)c1cccc(O)c1`: the response (vesicle binding) is inactive: 398%.

Take `COc1ccccc1OP(C)(=O)Nc1cccc(Br)c1` (stereo unspecified): the response (vesicle binding) was inactive: 1080%.

As to `CS(=O)(=O)c1ccc(Cl)c(NC(=O)COC(=O)C(O)(c2ccccc2)c2ccccc2)c1`, the response (vesicle binding) is inactive: 178%.

As for `O=[As](O)(O)c1cccnc1`, the response (vesicle binding) is inactive: 173%.

Regarding `COc1cc(C(=O)NCC2(N3CCOCC3)CCCCC2)cc(Cl)c1OC(C)C`, the response (vesicle binding) was inactive: 160%.

Regarding `O=C(OC1CN2CCC1CC2)c1ccc(Cl)cc1` (stereo unspecified), the response (vesicle binding) was inactive: 1230%.

Take `COc1ccc(N/C(=N/P(=O)(N2CCOCC2)N2CCOCC2)N2CCOCC2)cc1`: the response (vesicle binding) is inactive: 345%.

As for `COc1cc(I)ccc1[As](=O)(O)O`, the response (vesicle binding) was inactive: 181%.

As for `COc1ccc2nc(NP(=O)(c3ccccc3)c3ccccc3)sc2c1`, the response (vesicle binding) was inactive: 290%.

With `Cc1cc(=O)[nH]c(N[N+](=O)[O-])n1`, the response (vesicle binding) was inactive: 444%.

`CCN(CC)CCCOC(=O)C(O)(c1ccccc1)c1ccccc1`: the response (vesicle binding) is inactive: 391%.

For `O=C(OC1CN2CCC1CC2)C12CC3CC(CC(C3)C1)C2` (stereo unspecified), the response (vesicle binding) was inactive: 534%.

In the case of `Cc1c2c(nc3ccccc13)SC(C(Cl)Cl)C2` (stereo unspecified), the response (vesicle binding) was inactive: 240%.

On to `Cc1cc(C)cc(OP(C)(N)=O)c1` (stereo unspecified), for which the response (vesicle binding) was inactive: 152%.

`COc1ccc(OP(C)(=O)Nc2cccc(F)c2)cc1` (stereo unspecified): the response (vesicle binding) was inactive: 247%.

As to `O=[N+]([O-])c1cc([N+](=O)[O-])c(-c2ccn[nH]2)s1`, the response (vesicle binding) was inactive: 305%.

In the case of `CC(C)NC(=O)NP(=O)(Oc1ccccc1)Oc1ccccc1`, the response (vesicle binding) was inactive: 354%.

For `COc1ccccc1OP(C)(=O)Nc1cc(Cl)ccc1C` (stereo unspecified), the response (vesicle binding) is inactive: 192%.

With `CCN(CC)C(=S)SC(NC=O)C(Cl)(Cl)Cl` (stereo unspecified), the response (vesicle binding) was inactive: 280%.

As for `Cc1ccc(NP(C)(=O)Oc2ccccc2)c(C)c1` (stereo unspecified), the response (vesicle binding) is inactive: 176%.

With `CC(C)c1ccc(OP(=O)(Nc2ccccn2)Oc2ccccc2F)cc1` (stereo unspecified), the response (vesicle binding) is inactive: 782%.

Take `COc1ccccc1OP(C)(=O)Nc1ccc(C)cc1` (stereo unspecified): the response (vesicle binding) is inactive: 166%.

Turning to `ClCCSc1nnc(-c2cccnc2)o1`, the response (vesicle binding) is inactive: 308%.

In the case of `CCOC(=O)c1ccc(NP(C)(=O)Oc2ccccc2)cc1` (stereo unspecified), the response (vesicle binding) is inactive: 183%.

Take `O=[N+]([O-])c1ccc2c(c1)C=Nc1ccccc1O2`: the response (vesicle binding) is inactive: 84.4%.

Regarding `Cc1ccc2nc3c(c(C)c2c1)CC(C(Cl)Cl)S3` (stereo unspecified), the response (vesicle binding) is inactive: 193%.

For `Cc1cccc(C)c1OP(C)(N)=O` (stereo unspecified), the response (vesicle binding) was inactive: 367%.

On to `Cc1ccc(OP(=O)(Nc2ccc([N+](=O)[O-])cn2)Oc2ccc(C)cc2)cc1`, for which the response (vesicle binding) is inactive: 102%.

Consider `CC(C)(C)c1ccc(OP(C)(=O)Nc2ccc(SC(F)(F)F)cc2)cc1` (stereo unspecified), for which the response (vesicle binding) is inactive: 171%.

Consider `COc1cc(C(=O)NCC2(N3CCOCC3)CCCCC2)ccc1OCC(C)C`, for which the response (vesicle binding) is inactive: 364%.

On to `C[As](=O)(O)c1cccc(C(=O)O)c1`, for which the response (vesicle binding) was inactive: 207%.

In the case of `O=[As](O)(c1ccc(O)cc1)c1ccccc1O`, the response (vesicle binding) was inactive: 449%.

As for `O=[N+]([O-])c1cc([N+](=O)[O-])c(Nc2cccnc2)c([N+](=O)[O-])c1`, the response (vesicle binding) is inactive: 502%.

For `O=[N+]([O-])c1ccc(Nc2ccc(Oc3ccc([N+](=O)[O-])cc3[N+](=O)[O-])cc2)c([N+](=O)[O-])c1`, the response (vesicle binding) is inactive: 121%.

As for `CP(=O)(Nc1ccccc1Br)Oc1ccccc1` (stereo unspecified), the response (vesicle binding) is inactive: 242%.

Consider `COc1ccccc1OP(C)(=O)Nc1ccccc1` (stereo unspecified), for which the response (vesicle binding) was inactive: 954%.

On to `Cc1cc(SC(NC=O)C(Cl)(Cl)Cl)ncn1` (stereo unspecified), for which the response (vesicle binding) is inactive: 384%.

Take `O=P(Nc1ccccn1)(c1cccc2ccccc12)c1cccc2ccccc12`: the response (vesicle binding) is inactive: 257%.

Take `CCOC(=O)Nc1cccc([As](=O)(O)O)c1`: the response (vesicle binding) is inactive: 346%.

For `CP(=S)(Nn1cnnc1)Oc1ccccc1` (stereo unspecified), the response (vesicle binding) was inactive: 278%.

`Cc1cc(SC(NC(=O)c2ccccc2)C(Cl)(Cl)Cl)nc(C(C)C)n1` (stereo unspecified): the response (vesicle binding) is inactive: 366%.

For `CCOC(=O)Nc1ccc([As](=O)(O)O)c(O)c1`, the response (vesicle binding) is inactive: 744%.

With `CCC(C)N(CC(C)C)C(=S)SC(NC(C)=O)C(Cl)(Cl)Cl` (stereo unspecified), the response (vesicle binding) was inactive: 164%.

With `O=[N+]([O-])c1cc([N+](=O)[O-])c(O)c([N+](=O)[O-])c1.c1ccc(Oc2ccncc2)cc1`, the response (vesicle binding) was inactive: 125%.

Regarding `CCOC(=O)c1ccc(NP(C)(=O)Oc2ccc(OC)cc2)cc1` (stereo unspecified), the response (vesicle binding) was inactive: 170%.

As to `CCOC(=O)c1ccc(NC(=O)C(C)(CCl)SC)cc1` (stereo unspecified), the response (vesicle binding) was inactive: 455%.

Regarding `O=C(OC1CN2CCC1CC2)c1cccc([N+](=O)[O-])c1` (stereo unspecified), the response (vesicle binding) is inactive: 20.5%.

As to `CCOP(C)(=S)SCC(=O)NC(C)C(=O)O` (stereo unspecified), the response (vesicle binding) was inactive: 222%.

In the case of `O=C(Nc1ccncc1[N+](=O)[O-])c1ccc([N+](=O)[O-])cc1[N+](=O)[O-]`, the response (vesicle binding) is inactive: 180%.

As for `Cc1cc(C)cc(OP(C)(=O)Nc2ccc(SC(F)(F)F)cc2)c1` (stereo unspecified), the response (vesicle binding) was inactive: 294%.

Take `CP(=O)(NC(=O)Nc1ccccc1)Oc1ccccc1` (stereo unspecified): the response (vesicle binding) is inactive: 663%.

As to `O=C(COc1ccccc1)OC1CN2CCC1CC2` (stereo unspecified), the response (vesicle binding) is inactive: 247%.

Consider `CCc1ccc(OP(C)(=O)N2CCN(c3ccc([N+](=O)[O-])cc3)CC2)cc1` (stereo unspecified), for which the response (vesicle binding) was inactive: 444%.

`CP(=O)(Oc1ccccc1)OC(c1ccccc1)C(F)(F)F` (stereo unspecified): the response (vesicle binding) was inactive: 262%.

Consider `COP1(=S)c2c(C)nn(CCC#N)c2N=C(c2ccc(F)cc2)N1C` (stereo unspecified), for which the response (vesicle binding) is inactive: 520%.

As for `CP(=O)(Nc1ccc(SC(F)(F)F)cc1)Oc1ccc(Cl)cc1` (stereo unspecified), the response (vesicle binding) was inactive: 332%.

Take `Cc1cccc(C)c1OP(C)(=O)Nc1ccc(SC(F)(F)F)cc1` (stereo unspecified): the response (vesicle binding) is inactive: 206%.
